Earlier results as cited in US6787147B1, “Solar radiation protection composition” (priority 1998, dated 2004).

Settings: scytonemin: in vivo

For scytonemin, the absorption maximum is listed as 370 nm.
